The conditions of data set [1]: PBS pH 7.4 with 30% DMSO, 37 °C, pseudo first order.
For data set [2] the following is noted: fresh rat plasma, 37 °C.
A short description of data set [3]: Stratum corneum/water partition coefficient determination. The format is physicochemical, human.
A short description of data set [4]: Octanol/water partition coefficient determination. The class given is physicochemical. The note with it: octanol/purified water, room temperature, 24 hours.

Here are results for 2 substances from publication PMC4772728 (Drug development and industrial pharmacy, 2013).

“And” between values parts separate entries of the source, which are not always exact repeats. Identical values can stand only once. Like-named read-outs stand apart in the source and are kept apart here.

For the substance Glycerol Diclofenac Ester [GD], the “Hydrolysis in PBS (half life in hours)” value in data set [1] turned out to be 1550 min. The “Bioconversion in plasma (half life in min)” value in data set [2] is 11 min and 11.3 min. In data set [3] (stratum corneum / 5% propylene glycol in water, 24 hrs), the “Partition coefficient (LogK SC/ 5% PG water)” value was 1.56.

With Ethylene Glycol Diclofenac Ester [ED], in data set [4], the “Partition coefficient (LogP octanol/water)” value is on record as 3.83. In addition, the “Partition coefficient (LogK SC/ 5% PG water)” value in data set [3] is recorded as 1.74.
